Values quoted from earlier work as cited in patent publication US11583515B2, “Composition and method for rapidly inducing an endogenous ketosis” (priority 2015, dated 2023).

Settings: endogenously synthesized

## insulin
  bioactive half-life: 5 to 10 min
